Measured values: paper PMC3986664 (Molecular Metabolism, 2014)

Assay: Long-term stability study, alkaline RP-HPLC
Type: physicochemical
Settings: for Total degradation: ambient temperature

SMILES: CC(=O)NCC[C@H](NC(=O)[C@H](CO)NC(=O)[C@@H](N)Cc1c[nH]cn1)C(=O)NCC(=O)N[C@H](C(=O)N[C@@H](Cc1ccccc1)C(=O)N[C@H](C(=O)N[C@@H](CO)C(=O)N[C@@H](CC(=O)O)C(=O)N[C@@H](Cc1ccc(O)cc1)C(=O)N[C@@H](CO)C(=O)N[C@@H](CCCCN)C(=O)N[C@@H](Cc1ccc(O)cc1)C(=O)N[C@@H](CC(C)C)C(=O)N[C@@H](CC(=O)O)C(=O)NC(C)(C)C(=O)N[C@@H](CCCNC(=N)N)C(=O)N[C@@H](CCCNC(=N)N)C(=O)N[C@@H](C)C(=O)N[C@@H](C)C(=O)N[C@@H](CC(=O)O)C(=O)N[C@@H](Cc1ccccc1)C(=O)N[C@H](C(=O)N[C@@H](C)C(=O)N[C@@H](Cc1c[nH]c2ccccc12)C(=O)N[C@@H](CC(C)C)C(=O)N[C@@H](CC(C)C)C(=O)N[C@@H](CC(=O)O)C(=O)N[C@@H](CCC(=O)O)C(=O)O)C(C)C)[C@@H](C)O)[C@@H](C)O [IUB76]
- Difference in stability at six months between IUB75 and IUB76 (Δ2) (Figure 8, trend-line of degradation slopes): 10%
- Total degradation (one year, 1 mg/ml, 20 mM Tris, 0.1% SDS, pH 8.6, relative to the approximately 10% at six months): twice that amount
- Degradation (one year, refrigeration at 4 °C, 1 mg/ml, 20 mM Tris, 0.1% SDS, pH 8.6): less than 10%
- Total degradation (six months, 1 mg/ml, 20 mM Tris, 0.1% SDS, pH 8.6): approximately 10%
